## Apparent affinities of Ab-14 variants for a coronavirus HR2 peptide

Target peptide (SARS-CoV-2 spike, HR2 region): PDVDLGDISGINAS

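The starting antibody came from a phage panning campaign against this peptide. The variants were designed computationally from a first round of random CDR variants and then made and measured. Their group label is 14L_GP_Gibbs (GP: Gaussian process model; Gibbs: Gibbs sampling; a sequence that several methods proposed may carry one label only). In AlphaSeq, yeast of one mating type display the scFv and yeast of the other type display the target. The frequency of each diploid, read from paired DNA barcodes, reflects how well the two displayed proteins bind. Read counts were normalised to the haploid input and turned into Kd by a linear fit to BCL2-family pairs of known affinity, for each replicate. There are six technical replicates.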

Parent scFv Ab-14: VH joined to VL by three GGGGS repeats. Changes lie in the light chain CDRs alone.
VH: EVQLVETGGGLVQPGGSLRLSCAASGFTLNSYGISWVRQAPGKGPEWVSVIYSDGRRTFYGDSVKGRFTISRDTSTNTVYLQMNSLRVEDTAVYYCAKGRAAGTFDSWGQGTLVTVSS
VL: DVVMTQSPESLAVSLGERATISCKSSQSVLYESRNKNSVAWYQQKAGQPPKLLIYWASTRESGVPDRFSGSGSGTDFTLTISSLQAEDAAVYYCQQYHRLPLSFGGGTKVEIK

Substitutions are numbered in sequence along the VL above, starting at 1 (not Kabat). Values are log10 of the apparent Kd in nM; lower means stronger binding. "ND" marks a missing value. The strain was present, yet no cells mated with the target were sequenced in that replicate, which points to weak or no binding.

| changes | replicates, log10 nM | control signals |
|---|---|---|
| V29Q/L30D/W56N/T59Q/E61Y/S62Q | 0.35 / 0.20 / 0.26 / 0.22 / 0.21 / 0.25 | 4 of 18 (3.28) |
| S25M/S26L/V29N/W56N/E61M/S62W | -0.01 / 0.06 / 0.18 / 0.00 / 0.13 / 0.09 | 0 of 18 |
| S25I/Q27E/V29W/S33P/R34L/W56N/E61Q/S62M | 0.12 / -0.18 / -0.08 / -0.27 / -0.22 / 0.03 | 1 of 18 (2.40) |
| S25M/S26R/V29W/L30W/N35M/N37W/W56N/T59E | 1.48 / 1.07 / 1.30 / 0.66 / 1.09 / 1.29 | 1 of 18 (1.75) |
| S25L/S26Q/V29D/S38N/W56N/T59L/S62Q | 0.16 / 0.27 / 0.54 / 0.28 / 0.02 / 0.46 | 1 of 18 (3.86) |
| S25L/V29M/L30E/K36S/W56Q/S62H/S103M | 0.31 / 0.38 / 0.16 / 0.41 / 0.19 / 0.34 | 1 of 18 (2.76) |
| S25L/S28L/V29M/W56N/E61G | -0.01 / -0.14 / -0.20 / -0.31 / -0.38 / -0.26 | 1 of 18 (2.68) |
| S25F/V29E/S33E/K36Q/W56G/T59Q/E61L | -0.18 / -0.02 / -0.12 / -0.38 / -0.03 / -0.03 | 0 of 18 |
| S25I/S26Q/L30Q/W56N/T59D/E61Q | -0.12 / 0.09 / -0.20 / 0.08 / -0.26 / -0.17 | 1 of 18 (2.04) |
| S25V/V29Q/L30C/S38N/W56N/T59D/E61M | -0.21 / -0.23 / -0.17 / -0.52 / -0.31 / -0.03 | 1 of 18 (2.46) |
| S25L/S26Q/V29H/E32G/N35M/W56H/T59V/Q96C | 0.95 / 0.73 / 0.66 / 0.42 / 0.66 / 0.92 | 4 of 18 (2.56) |
| S25V/S26M/W56N/T59Q/S62L | 0.33 / 0.00 / -0.11 / 0.05 / 0.16 / 0.08 | 1 of 18 (2.78) |
| S25F/Q27Y/V29N/L30P/S33T/W56E/T59Q/S62E | 0.01 / 0.51 / 0.27 / -0.13 / 0.12 / 0.45 | 0 of 18 |
| K24Y/S25L/W56N/S62A/S103M | -0.05 / -0.17 / 0.03 / -0.41 / -0.08 / -0.13 | 0 of 18 |
| S25L/S26Q/Q27G/V29N/K36L/W56K/E61L/S62Q | 0.79 / 0.72 / 0.80 / 0.79 / 0.27 / 0.71 | 0 of 18 |
| S25I/Q27C/S28A/L30Y/E32G/S33D/N37M/W56D | 0.02 / -0.04 / 0.02 / -0.14 / -0.03 / 0.12 | 2 of 18 (3.26) |
| S25L/S26M/Q27G/V29M/K36W/W56H/T59H | 1.59 / 1.09 / 1.41 / 1.04 / 1.17 / 1.36 | 2 of 18 (2.17) |
| S25V/S26Q/Q27M/S28Q/V29K/E32W/W56E | 0.24 / -0.08 / 0.01 / 0.11 / -0.10 / -0.13 | 0 of 18 |
| S25N/S26D/Q27I/V29H/Y31G/S38A/W56N/S62E | 0.12 / 0.07 / -0.15 / -0.31 / -0.22 / -0.11 | 0 of 18 |
| S25L/S26R/V29M/L30S/S33D/W56N/T59Q/E61C | 0.08 / -0.02 / -0.06 / -0.13 / -0.02 / 0.21 | 0 of 18 |
| K24A/S25L/S28L/V29E/K36W/W56N/S62K | 0.79 / 0.50 / 0.56 / 0.45 / 0.38 / 0.61 | 0 of 18 |
| S25Q/Q27I/Y31Q/K36Q/W56E/S62V | -0.17 / -0.32 / -0.06 / 0.09 / 0.26 / 0.31 | 0 of 18 |
| S25L/S26M/S28E/V29W/N35L/K36A/W56N/E61L/S62E | 1.26 / 0.60 / 0.32 / 0.24 / 0.35 / 0.52 | 0 of 18 |
| S25F/S26E/V29N/L30G/W56N/H98W | 0.59 / 0.33 / 0.23 / 0.08 / 0.30 / 0.82 | 0 of 18 |
| K24L/S25V/S26D/V29N/S33Q/W56S/T59L | 0.58 / 0.16 / 0.24 / 0.47 / 0.23 / 0.46 | 2 of 18 (2.26) |
| S25L/S26M/L30W/Y31Q/W56H/T59L/S62V/Q96A | 3.08 / 1.82 / 1.76 / 2.24 / 2.05 / 1.56 | 0 of 18 |
| S25V/V29G/E32G/N37W/W56N/S103D | 1.91 / 1.57 / 2.46 / 2.10 / 2.36 / 2.13 | 5 of 18 (3.62) |
| Y31Q/E32L/K36Q/W56E/S62A | 0.20 / 0.07 / 0.11 / 0.27 / 0.20 / 0.22 | 1 of 18 (2.37) |
| K24L/S25V/S26D/V29Q/S33Q/N35M/W56E/T59L | ND / ND / ND / 1.56 / ND / ND | 0 of 18 |
| S25L/V29Q/L30E/K36S/N37K/W56N/E61V | 0.11 / 0.05 / -0.08 / -0.22 / -0.03 / 0.17 | 3 of 18 (3.92) |
| S25L/Q27E/V29F/W56D/E61L/S62E | -0.24 / -0.19 / -0.38 / -0.51 / -0.48 / -0.15 | 1 of 18 (3.35) |
| K24I/S25L/Q27Y/V29E/S33D/W56N/T59Q/S62Q | 0.05 / -0.19 / -0.28 / -0.24 / -0.19 / 0.00 | 1 of 18 (3.21) |
| S25M/Q27M/V29E/S33D/K36Q/W56S/T59Q/E61L/S62D | 0.13 / -0.11 / 0.01 / -0.20 / -0.08 / 0.19 | 1 of 18 (2.58) |
| S25L/S26M/Q27W/V29M/L30Q/W56G/T59Y | 0.61 / 0.52 / 0.45 / 0.28 / 0.37 / 0.39 | 3 of 18 (3.25) |
| S25L/S33Q/R34Q/S38Q/W56E/A57S/E61M | 1.11 / 1.13 / ND / 1.10 / 0.50 / 2.58 | 0 of 18 |
| S25V/S26E/V29H/K36G/W56N/S62H | 0.83 / 0.82 / 0.41 / 0.64 / 0.71 / 0.44 | 0 of 18 |
| S25V/S26Y/Q27W/S28G/L30D/E32G/S33D/W56H/T59R | ND / 0.45 / 0.97 / 0.41 / 2.63 / 1.07 | 0 of 18 |
| S25L/S26Q/S28W/V29H/N35M/W56H/T59Q/Q96C | 0.34 / 0.31 / 0.21 / 0.09 / -0.19 / 0.26 | 1 of 18 (1.31) |
| S25V/S26M/Y31Q/E32G/S33Q/W56E/S62R | 0.81 / 0.14 / 0.63 / 2.13 / 1.58 / 1.03 | 0 of 18 |
| S25V/Q27M/L30N/E32L/S33Q/W56Q | 1.81 / ND / ND / ND / ND / 1.65 | 0 of 18 |
| S25L/V29R/W56H/T59L/E61L/Q96C | 0.32 / 0.23 / 0.04 / 0.01 / 0.09 / 0.24 | 3 of 18 (2.91) |
| S25L/S26P/S28K/V29W/S38N/W56N/T59C/S62Q | 0.02 / 0.08 / -0.01 / -0.15 / -0.13 / 0.24 | 0 of 18 |
| S25F/S26E/S28L/V29D/L30G/Y31G/S33Q/W56N/T59Q/S62D | -0.01 / -0.11 / -0.12 / -0.15 / -0.10 / 0.03 | 0 of 18 |
| S25L/S26V/S28Q/V29H/S38N/W56E/S62Q | -0.09 / -0.24 / -0.23 / -0.37 / -0.34 / -0.11 | 1 of 18 (2.48) |
| S25F/S26P/S28E/L30W/E32Q/W56D/S62Q | -0.15 / 0.28 / -0.06 / -0.24 / -0.30 / 0.66 | 0 of 18 |
| S25L/S26Q/Q27M/L30M/Y31L/N35W/K36C/W56S/S62E | 1.10 / ND / ND / 2.11 / 0.65 / 0.86 | 0 of 18 |

The parent sequence was in this pool as ten entries: three were never detected, three once, and four in most replicates, with averages from 0.34 to 2.37. The range of this assay differs from that of the first round, and the authors advise against merging the two. Nonspecific signal, from three strains lacking the peptide, appeared in 4% of pairings of all light chain designs, centred on 2.64 (5% of these signals below 1.59); values are not corrected for it. For each scFv, signals with the empty controls are counted beside the result, with their mean in brackets. In the paper, a design with two or fewer of six values counts as a poor binder.

Reference: Li et al. 2023, doi:10.1038/s41467-023-39022-2. File: FLAb, binding data.